Reference: ChEMBL document CHEMBL1938395, “New benzimidazole derivatives as antiplasmodial agents and plasmepsin inhibitors: synthesis and analysis of structure-activity relationships” (Bioorg Med Chem Lett, 2012)

Test: Selectivity ratio of IC50 for human cathepsin D to IC50 for Plasmodium falciparum plasmepsin-2

Ratio IC50: 3
Compound: O=C(Cn1c(-c2ccccn2)nc2ccccc21)c1ccc(F)cc1
